# Yeast UUG start-1: alters start codon recognition fidelity in yeast. S. cerevisiae UUG-firefly luciferase reporter, luminescence/redox ratio. activity score, % at 18.7 µM. 0.13% of 350,000 active. AID 602363;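 active = replicate mean at a twofold rise or more, about +100% in these data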;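 also: firefly luciferase made from a UUG start codon reports start codon fidelity; reporter light over untreated wells divided by growth signal over untreated wells; some hits fall short of that in this replicate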
# DENV2 CPE: inhibitors of DENV2 cytopathic effect, primary screen, cell-based, plate reader, single concentration | DENV2-infected cells, cytopathic effect rescue | CPE inhibition, % at 9.99 µM | AID 651640, 2012 | 1.7% of 350,000 active; in the data active means CPE inhibition above about 20%, passing the limit was not always enough; inconclusive means no clear call, values can overlap the other calls; tested in BHK-21 cells;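 further: 0% = median of neutral control wells and 100% = median of positive control wells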
# Cneo AK release: Cryptococcus neoformans cell lysis inducers, primary screen, AK release luminescence, single concentration | C. neoformans lysis, adenylate kinase release luminescence, 4 h; normalised: neutral wells 0, clomiphene wells 100 | 0.2% of 360,000 active | lysis activity, % at 15 µM;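 active means mean lysis activity across replicates of at least 80%, whatever share of replicates individually reach that level; inactive means mean lysis activity below 80%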
#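 Test system: log-phase Cryptococcus neoformans yeast cells. Input: 5 × 10^6 yeast cells/mL. Medium: fresh YPD growth medium. Doses: single dose. Incubation: static 4 h at 37 °C with compound, 1 h detection. Measured by: luminescent adenylate kinase detection reagent. Read-out: signal increase indicating cell lysis. Benchmarks: Clomiphene.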
# E-sel inducer: E-selectin induction in HUVECs, primary screen, imaging, HUVEC, immunofluorescence imaging, single point. P16581. 0.37% of 260,000 active. normalized: neutral wells 0, TNF-alpha wells 100. activation, % at 7.58 µM;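 active means mean E-selectin-positive cell signal at least 10% of the positive control, reached in at least 60% of replicates, without over 20% cell loss; inconclusive means no rule given, readout overlaps actives, possibly toxicity-flagged; inactive means the rest, including those meeting only one limit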
#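 Read-out basis: % PE-positive cells; Test system: HUVEC primary endothelial cells; Technique: immunofluorescence imaging; Dosing: single-point compound dose.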
# Yeast UUG start-2: enhancers of UUG start codon usage in yeast, dose response, S. cerevisiae, UUG firefly luciferase, cherry-pick, set 2; shares compounds with Yeast UUG start-1; luminescence, 4 h; 100% means double the DMSO signal; activation, % at 38 µM; 540 tested, under 10 active;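 active means signal increase whose fitted curve reaches an absolute level of 40 at a concentration under 10 µM; inactive means activity opposite to the expected increase, or the rest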
# Active calls of the source: *; ? = inconclusive; · = not tested or not shown. The list is not random: actives were taken first. Their share in the collection is about 1.8%.
SMILES,Yeast UUG start-1,DENV2 CPE,Cneo AK release,E-sel inducer,others
CN(C)CC1CSCCC1(O)c1ccc(C(F)(F)F)cc1 (centres undefined),-12,69*,9,·,
CN(C)CC1CSCCC1(O)c1ccc(Cl)cc1 (centres undefined),-10,·,3,·,
O=C(Cc1cccnc1)N1CCCCN2[C@H](C1)[C@@H](c1ccc(C#CC3CC3)cc1)[C@@H]2CO,-4,-3,0,·,
O=C(O)[C@H]1[C@H](CO)[C@H]2Cn3c(ccc(-c4cncnc4)c3=O)[C@@H]1N2C(=O)NC1CCCC1,·,-6,-1,-2,
NS(=O)(=O)c1nc[nH]c1[N+](=O)[O-],-17,29*,0,·,
COC(=O)C1=C(c2ccccc2OCc2ccccc2)C[C@@H]2CC[C@H]1N2C(=O)NCc1ccc(Cl)cc1,-13,58*,-1,2,
COC(=O)C1=C(c2ccc(-c3ccccc3)c(F)c2)C[C@@H]2CC[C@H]1N2C(=O)NCCCOC(C)C,13,25*,3,0,
COC(=O)C1=C(c2ccc(-c3ccccc3)c(F)c2)C[C@@H]2CC[C@H]1N2C(=O)NCCNC(C)=O,-7,-6,-1,0,
COC(=O)C1=C(c2ccc(-c3ccccc3)c(F)c2)C[C@@H]2CC[C@H]1N2C(=O)NCCc1ccccc1,-16,30*,-1,0,
COc1ccc(-c2ccc([C@H]3[C@H]4CN(C(=O)Cc5ccccc5)CCCCN4[C@H]3CO)cc2)cc1,19,2,-1,0,
COC(=O)[C@H]1[C@H](CO)[C@H]2Cn3c(ccc(C4=CCCCC4)c3=O)[C@@H]1N2Cc1cccnc1,·,-12,1,0,
Cc1cccc(S(=O)(=O)N2[C@@H]3c4ccc(-c5ccncc5)c(=O)n4C[C@H]2[C@H](CO)[C@H]3C(=O)O)c1,·,9,-2,0,
Cc1ccc(/C=C2\C(=O)NC(=O)N(CC3CCCO3)C2=O)s1 (centres undefined),-7,30*,0,0,
N#Cc1ccc(CN2Cc3ccccc3-n3nncc3C2)cc1,-6,109*,-2,·,
O=C(Cc1ccccn1)N1CCCCN2[C@@H](CO)[C@@H](c3ccc(-c4ccc(F)cc4)cc3)[C@@H]2C1,4,19,1,0,
COC(=O)[C@@H]1N[C@@H]2c3ccc(C4=CCCC4)c(=O)n3C[C@@H]2[C@H]1CO,·,-16,-1,0,
COc1cc2c(c(OC)c1OC)-c1ccc(O)c(=O)cc1[C@@H](N)CC2,-25,86*,3,·,
COc1cc2c(c(OC)c1OC)-c1ccc(C(=O)O)cc1[C@@H](NC(C)=O)CC2,3,·,3,0,
CCCNC(=O)[C@H]1[C@H](CO)[C@H]2Cn3c(cccc3=O)[C@H]2N1C,·,-4,3,0,
O=C(c1ccc(CNS(=O)(=O)c2ccc(Br)cc2)cc1)N1CCC2(CC1)OCCO2,-13,37*,8,·,
O=C(c1ccc(CNS(=O)(=O)c2ccccc2)cc1)N1CCC2(CC1)OCCO2,11,·,-2,·,
CC(C)[C@H](NC(=O)N1C[C@H]2C[C@@H](C1)c1cccc(=O)n1C2)C(=O)Nc1ccccc1F,-1,58*,-5,·,
O=C(CCC(=O)N1C[C@H]2C[C@@H](C1)c1cccc(=O)n1C2)NCc1ccc(F)cc1,21,81*,0,·,
CC=Cc1ccc2n(c1=O)C[C@@H]1[C@@H](CO)[C@H](C(=O)OC)[C@H]2N1C(=O)CC1CC1 (mixture of isomers),·,·,51,0,
CC[n+]1c(/C=C/N(C)c2ccccc2)sc2ccc(Cl)cc21,-23,·,-1,·,
CC[n+]1c(/C=C/C=C/c2ccc(N(C)C)cc2)sc2ccccc21,100*,-11,-4,·,Yeast UUG start-2=1
CC=Cc1ccc2n(c1=O)C[C@H]1[C@H](CO)[C@@H](C(=O)OC)[C@@H]2N1CC1CCCC1 (mixture of isomers),·,?,·,0,
O=C(c1ccccc1)c1cn(CC(=O)N2CCOCC2)c2ccccc12,2,·,2,·,Yeast UUG start-2=-6

# Of the compounds above, these have a Cl atom:
SMILES,Yeast UUG start-1,DENV2 CPE,Cneo AK release,E-sel inducer,others
CN(C)CC1CSCCC1(O)c1ccc(Cl)cc1 (centres undefined),-10,·,3,·,
COC(=O)C1=C(c2ccccc2OCc2ccccc2)C[C@@H]2CC[C@H]1N2C(=O)NCc1ccc(Cl)cc1,-13,58*,-1,2,
CC[n+]1c(/C=C/N(C)c2ccccc2)sc2ccc(Cl)cc21,-23,·,-1,·,

# Screens as filed in PubChem BioAssay.
